# The list is not random: actives were taken first. Their share in the collection is about 1.2%.
# Rce1 inh – blocks yeast Ras-converting enzyme | 0.27% of 290,000 active | calls only | yeast membranes, quenched prenylated peptide cleavage fluorescence | Q03530;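 active means fall in fluorescence gain of 50% or more versus controls, with final raw signal at or below 3038400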;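 further: plate controls were neutral control wells for no effect and wells lacking membranes for full effect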
# Pemphigus Ab inh – blocks pemphigus antibody binding to human desmoglein-3. 0.48% of 310,000 active. AID 588358. DSG3-coupled beads, scFv-anti-DSG3-GFP binding, flow cytometry; active compounds read low. binding (percent of control), % at 10 µM;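 active means binding more than 3 SD below its plate's average and above zero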;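 further: hits lower antibody fragment binding to DSG3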
# TbMetRS inhib – Trypanosoma brucei MetRS inhibition. 0.4% of 360,000 active. inhibition, % at 11.9 µM. purified T. brucei MetRS, ATP depletion, Kinase-Glo luminescence. AID 624268;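 active means inhibition above a per-plate cutoff of the control wells' mean inhibition plus 3 SD, cut at about 5.5% in these data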;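 further: 0% = DMSO wells median and 100% = median of wells with control inhibitor compound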
#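 Dosing: 11.9 µM single point; system: parasite MetRS enzyme; technique: luminescence of leftover ATP; times: 15 min enzyme-compound preincubation, 2 h reaction, 10 min detection, 25 °C; replicates: each compound tested once; read-out basis: percent inhibition relative to median high and low control wells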
# Arr AP2 block – blocks beta-arrestin peptide binding to AP2 adaptin | FITC-arrestin peptide / GST-AP2 beads, flow cytometry; AP2 beta2 appendage carries R879A mutation | inhibition, % at 10 µM | 0.31% of 340,000 active;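 active means inhibition above a set limit, near 3 SD of compounds lacking own fluorescence, cut at about 54% in these data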;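 further: plate controls were DMSO wells for no effect and 5 µM unlabelled arrestin peptide for full effect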
#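 system = GST-tagged AP2 beta2-adaptin appendage (R879A) on 4 µm glutathione beads | reagent = FITC-labelled arrestin peptide probe, 50 nM final | schedule = compound with beads 12 min RT, then probe 1 h RT | signal = HyperCyt-sampled flow cytometry, FL1 channel, ex 488/em 535 nm | read-out = percent response from loss of bead-bound FITC fluorescence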
# UUG fidelity – alters start codon recognition fidelity in yeast; S. cerevisiae UUG-firefly luciferase reporter, luminescence/redox ratio; activity score, % at 18.7 µM; actives 0.13% (n = 350,000); AID 602363;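 active = replicate mean at a twofold rise or more, about +100% in these data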;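 also: firefly luciferase made from a UUG start codon reports start codon fidelity; reporter light over untreated wells divided by growth signal over untreated wells; some hits fall short of that in this replicate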
# TbMetRS confirm – confirmation of Trypanosoma brucei MetRS inhibitors; shares compounds with TbMetRS inhib; T. brucei MetRS enzyme, luminescence (ATP depletion); inhibition, % at 11.9 µM; 93% of 1,400 active; in the data active means inhibition above about 7%
# Jurkat tox – counter-screen for T. brucei MetRS inhibitors: Jurkat cell cytotoxicity. shares compounds with TbMetRS inhib. Jurkat cells viability, ATP luminescence. inhibition, % at 8.3 µM. 12% of 1,400 active. AID 624413; in the data active means inhibition above about 15%;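 further: 0% = vehicle and 100% = reference inhibitor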
# TbMetRS FP orth – orthogonal test for Trypanosoma brucei MetRS inhibitors | shares compounds with TbMetRS inhib | purified T. brucei MetRS, fluorescence polarization | inhibition, % at 11.9 µM | 44% of 1,400 active; in the data active means inhibition above about 17%;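 further: 0% = vehicle wells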
# Active calls of the source: *; i = inactive; · = no result.
# Letter code – A = Rce1 inh; B = Pemphigus Ab inh; C = TbMetRS inhib; D = Arr AP2 block; E = UUG fidelity; F = TbMetRS confirm; G = Jurkat tox; H = TbMetRS FP orth
structure: CNC[C@@H]1Oc2ccc(NC(=O)Nc3c(C)noc3C)cc2C(=O)N([C@@H](C)CO)C[C@H]1C
  A = · | B = · | C = · | D = · | E = -32 | F = · | G = · | H = ·
structure: O=C(CCCOc1ccc(Cl)cc1Cl)N1CCN(c2ccccn2)CC1
  A = i | B = 98 | C = 12* | D = 20 | E = -12 | F = 20* | G = -1 | H = 14
structure: O=C(COc1ccc(Cl)cc1Cl)N/N=C/c1ccc[nH]1
  A = i | B = 105 | C = 6.6* | D = -4 | E = -10 | F = 36* | G = 1 | H = 27*
structure: O=C(CCCOc1ccc(Cl)cc1Cl)Nc1ncccn1
  A = i | B = 97 | C = 1 | D = -9 | E = -6 | F = · | G = · | H = ·
structure: O=C(COc1ccc(Cl)cc1Cl)N1CCN(c2ccccn2)CC1
  A = i | B = 103 | C = 0 | D = -1 | E = · | F = · | G = · | H = ·
structure: O=C(CCCOc1ccc(Cl)cc1Cl)N/N=C/c1ccccc1O
  A = i | B = 126 | C = 37* | D = 9 | E = · | F = 80* | G = 82* | H = 76*
structure: O=C(CCCOc1ccc(Cl)cc1Cl)N/N=C/c1ccco1
  A = i | B = 105 | C = 17* | D = -3 | E = · | F = 52* | G = 5 | H = 57*
structure: C[C@@H]1CN([C@H](C)CO)C(=O)Cc2cc(NS(C)(=O)=O)ccc2O[C@@H]1CN(C)C(=O)Nc1ccc(C(F)(F)F)cc1
  A = · | B = · | C = · | D = · | E = -19 | F = · | G = · | H = ·
structure: C[C@@H]1CN([C@H](C)CO)C(=O)c2cc(NC(=O)Nc3ccc(F)cc3)ccc2O[C@@H](C)CCCCO[C@H]1CN(C)Cc1ccccc1
  A = · | B = · | C = · | D = · | E = 11 | F = · | G = · | H = ·
structure: CN(C)CC(=O)Nc1ccc2c(c1)[C@H]1C[C@@H](CC(=O)NCC3CC3)O[C@H](CO)[C@H]1O2
  A = · | B = · | C = · | D = · | E = -4 | F = · | G = · | H = ·
structure: C[C@H]1CN([C@@H](C)CO)C(=O)Cc2cc(NC(=O)Nc3ccccc3)ccc2O[C@@H]1CN(C)C(=O)Nc1cccc2ccccc12
  A = · | B = · | C = · | D = · | E = -1 | F = · | G = · | H = ·
structure: O=C(CCCOc1ccc(Cl)cc1Cl)N/N=C/c1ccccc1
  A = i | B = 102 | C = 12* | D = 17 | E = 2 | F = 39* | G = 3 | H = 34*
structure: Cc1ccc(/C=N/NC(=O)CCCOc2ccc(Cl)cc2Cl)cc1
  A = i | B = 108 | C = 2 | D = 1 | E = -3 | F = · | G = · | H = ·
structure: N#Cc1ccc(-c2ccc3c(c2)[C@@H]2[C@@H](CCN2C(=O)c2ccccc2F)[C@@H](CO)N3)cc1
  A = · | B = · | C = · | D = · | E = -9 | F = · | G = · | H = ·
structure: O=C(CSc1ccc(-c2nc3ccccc3[nH]2)cn1)Nc1ccc(S(=O)(=O)N2CCCC2)cc1
  A = i | B = 87 | C = 30* | D = 2 | E = · | F = 33* | G = 8 | H = 31*
structure: Cc1ccc2nc(-c3ccc(SCC(=O)N4CCc5ccccc54)nc3)[nH]c2c1
  A = i | B = · | C = 1 | D = -6 | E = · | F = · | G = · | H = ·
structure: Cc1ccc2nc(-c3ccc(SCC(=O)O)nc3)[nH]c2c1
  A = i | B = 96 | C = 10* | D = 28 | E = -14 | F = 21* | G = -3 | H = 4
structure: CCOC(=O)CNC(=O)CSc1ccc(-c2nc3ccccc3[nH]2)cn1
  A = · | B = 102 | C = 9.1* | D = 1 | E = -3 | F = 28* | G = 6 | H = 10
structure: N#Cc1ccccc1CSc1ccc(-c2nc3ccccc3[nH]2)cn1
  A = i | B = 119 | C = 11* | D = 24 | E = · | F = 24* | G = 12 | H = 21*
structure: C[C@H]1CN([C@@H](C)CO)C(=O)c2cccc(NS(=O)(=O)c3ccc(Cl)cc3)c2O[C@@H]1CN(C)C(=O)Nc1ccc2c(c1)OCO2
  A = · | B = · | C = · | D = · | E = 8 | F = · | G = · | H = ·
structure: COc1ccccc1NS(=O)(=O)c1cccc(NC(=O)Nc2ccccc2)c1
  A = i | B = 85 | C = 88* | D = 14 | E = -13 | F = 100* | G = 13 | H = 105*
structure: COc1cccc(OC)c1C(=O)Nc1cccc(S(=O)(=O)Nc2ccccc2Cl)c1
  A = · | B = 109 | C = 0 | D = 13 | E = 3 | F = · | G = · | H = ·
structure: COc1ccccc1NS(=O)(=O)c1cccc(NC(=O)Nc2ccc(Cl)cc2)c1
  A = i | B = 85 | C = 51* | D = 26 | E = · | F = 78* | G = 4 | H = 103*
structure: CO[C@@H]1CN(C)C(=O)c2ccc(NC(=O)C3CCC3)cc2OC[C@H](C)N(Cc2ccncc2)C[C@H]1C
  A = · | B = · | C = · | D = · | E = -3 | F = · | G = · | H = ·
structure: CCOC(=O)N(C)C[C@@H]1OCc2ccccc2-c2ccccc2C(=O)N([C@H](C)CO)C[C@H]1C
  A = · | B = · | C = · | D = · | E = 4 | F = · | G = · | H = ·

# Arranged by number of heavy atoms (rising): part of the list above.
# Letter code – A = Rce1 inh; B = Pemphigus Ab inh; C = TbMetRS inhib; D = Arr AP2 block; E = UUG fidelity; F = TbMetRS confirm; G = Jurkat tox; H = TbMetRS FP orth
structure: O=C(CCCOc1ccc(Cl)cc1Cl)N/N=C/c1ccccc1O
  A = i | B = 126 | C = 37* | D = 9 | E = · | F = 80* | G = 82* | H = 76*
structure: CCOC(=O)CNC(=O)CSc1ccc(-c2nc3ccccc3[nH]2)cn1
  A = · | B = 102 | C = 9.1* | D = 1 | E = -3 | F = 28* | G = 6 | H = 10
structure: COc1ccccc1NS(=O)(=O)c1cccc(NC(=O)Nc2ccc(Cl)cc2)c1
  A = i | B = 85 | C = 51* | D = 26 | E = · | F = 78* | G = 4 | H = 103*

# Next section
# Letter code – A = Rce1 inh; B = Pemphigus Ab inh; C = TbMetRS inhib; D = Arr AP2 block; E = UUG fidelity; F = TbMetRS confirm; G = Jurkat tox; H = TbMetRS FP orth
structure: O=C(COC(=O)c1ccc2ccccc2c1)NCCCc1ccccc1
  A = i | B = 104 | C = 0 | D = 12 | E = -6 | F = · | G = · | H = ·
structure: Nc1cc(C(=O)OCC(=O)NCCCc2ccccc2)ccc1Cl
  A = i | B = 90 | C = 9.0* | D = -7 | E = -14 | F = 18* | G = -9 | H = 7
structure: COCC(=O)NC[C@@H]1[C@@H](c2ccccc2)[C@@H](CO)N1C(C)=O
  A = · | B = · | C = · | D = · | E = 11 | F = · | G = · | H = ·
structure: Cc1noc(C)c1S(=O)(=O)N(C)C[C@@H]1Oc2ccc(N(C)C)cc2CC(=O)N([C@@H](C)CO)C[C@H]1C
  A = · | B = · | C = · | D = · | E = 8 | F = · | G = · | H = ·
structure: CC(=O)c1ccc(N2CCN(C(=O)CCCn3c(=O)[nH]c4ccc(Br)cc4c3=O)CC2)cc1
  A = i | B = 98 | C = 84* | D = 6 | E = · | F = 104* | G = 4 | H = 87*
structure: COc1ccc(N2CCN(C(=O)CCCCCn3c(=O)[nH]c4ccsc4c3=O)CC2)cc1
  A = i | B = 100 | C = 5 | D = 5 | E = -8 | F = · | G = · | H = ·
structure: O=C(CCn1c(=O)[nH]c2ccccc2c1=O)N1CCN(c2cccc(C(F)(F)F)c2)CC1
  A = i | B = 107 | C = -1 | D = 4 | E = 6 | F = · | G = · | H = ·
structure: CC(=O)c1ccc(N2CCN(C(=O)CCCn3c(=O)[nH]c4ccsc4c3=O)CC2)cc1
  A = i | B = · | C = 7.3* | D = 33 | E = -13 | F = 17* | G = 0 | H = 6
structure: O=C(CCCCn1c(=O)[nH]c2ccccc2c1=O)N1CCN(c2cccc(C(F)(F)F)c2)CC1
  A = i | B = · | C = 12* | D = -10 | E = 1 | F = 14* | G = 8 | H = 5
structure: Cn1c(CSc2nc3ccc(Br)cc3[nH]2)nc2ccccc21
  A = i | B = 106 | C = 12* | D = 24 | E = -9 | F = 18* | G = 8 | H = 12
structure: Cc1ccc(S(=O)(=O)Nc2cccc3ncccc23)cc1
  A = i | B = 77 | C = 0 | D = 2 | E = -14 | F = · | G = · | H = ·
structure: Cc1ccc(S(=O)(=O)Nc2ccnc3ccccc23)cc1
  A = i | B = 105 | C = 7.0* | D = 24 | E = -13 | F = 15* | G = 8 | H = 8
structure: C[C@H]1CCCCO[C@@H](CN(C)C(=O)Cc2ccccc2)[C@@H](C)CN([C@@H](C)CO)C(=O)c2cc(NC(=O)Cc3ccccc3)ccc2O1
  A = · | B = · | C = · | D = · | E = 13 | F = · | G = · | H = ·
structure: C[C@@H]1CCCCO[C@H](CN(C)C(=O)c2ccncc2)[C@H](C)CN([C@@H](C)CO)C(=O)c2cc(NS(=O)(=O)c3cn(C)cn3)ccc2O1
  A = · | B = · | C = · | D = · | E = 8 | F = · | G = · | H = ·
structure: Nc1nnc(CC(=O)N/N=C/c2ccc(-c3ccc(Cl)cc3Cl)o2)s1
  A = i | B = 77 | C = 11* | D = 0 | E = · | F = 3 | G = 4 | H = 5
structure: Nc1nnc(CC(=O)N/N=C/c2ccc(-c3ccccc3)o2)s1
  A = i | B = 88 | C = 8.1* | D = -1 | E = · | F = 5 | G = 1 | H = 9
structure: Nc1nnc(CC(=O)N/N=C/c2ccc(-c3ccccc3Cl)o2)s1
  A = i | B = 89 | C = 3 | D = 2 | E = · | F = · | G = · | H = ·
structure: Nc1nnc(CC(=O)N/N=C\c2ccc(-c3cccc(Cl)c3)o2)s1
  A = i | B = 96 | C = 0 | D = 1 | E = -5 | F = · | G = · | H = ·

# Screening data: PubChem BioAssay, several laboratories
